We go through one substance from patent US7538096B2, “Treatment and prevention of abnormal cellular proliferation” (The General Hospital Corporation, priority 2004, dated 2009).

This series has as its system coagulation. The experiment in a line: anticoagulant property (no test named).

In the case of “O-Hexanoyl derivative of periodate-oxidized heparin fragments [hexanoylated heparin]”, the anticoagulant property entry was “virtually no”.
